Test results reported in ChEMBL document CHEMBL1212911, “Identification of potent and selective amidobipyridyl inhibitors of protein kinase D” (J Med Chem, 2010).

Amino acid sequences for entries named in this document (tags omitted).
UniProt Q13554, whole entry: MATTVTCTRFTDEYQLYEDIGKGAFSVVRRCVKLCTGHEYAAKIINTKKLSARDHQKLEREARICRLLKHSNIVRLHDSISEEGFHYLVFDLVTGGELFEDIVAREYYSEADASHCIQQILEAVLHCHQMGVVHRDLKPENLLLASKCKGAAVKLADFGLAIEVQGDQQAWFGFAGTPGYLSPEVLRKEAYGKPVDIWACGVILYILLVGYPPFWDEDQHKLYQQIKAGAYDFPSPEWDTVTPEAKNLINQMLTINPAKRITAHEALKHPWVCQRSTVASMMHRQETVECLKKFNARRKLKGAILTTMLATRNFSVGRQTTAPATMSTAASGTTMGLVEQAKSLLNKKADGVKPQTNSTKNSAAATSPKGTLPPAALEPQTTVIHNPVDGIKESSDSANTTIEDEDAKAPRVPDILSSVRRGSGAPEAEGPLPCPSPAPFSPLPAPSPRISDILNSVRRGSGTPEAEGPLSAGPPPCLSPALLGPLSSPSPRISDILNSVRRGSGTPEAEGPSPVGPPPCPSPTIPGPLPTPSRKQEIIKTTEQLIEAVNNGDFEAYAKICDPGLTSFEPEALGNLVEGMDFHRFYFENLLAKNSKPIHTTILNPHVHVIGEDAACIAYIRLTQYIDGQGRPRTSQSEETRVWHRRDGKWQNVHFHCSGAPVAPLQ

Tests used:
Caco-2 = test: Ratio of permeability from apical to basolateral side to basolateral to apical side in human Caco-2 cells; assay type: ADME, cell-based
[1] = Inhibition of rat CaMK2beta; conditions: concentration not given here
[2] = molecular target: Calcium/calmodulin-dependent protein kinase type II subunit beta (Homo sapiens) (UniProt Q13554); test: Inhibition of human CaMK2beta; conditions: concentration not given here
Method in brief: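 Selectivity screen run externally (Invitrogen SelectScreen). Percent inhibition measured at 1 μM compound, mean of 2 measurements.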

Ratio (Caco-2) | inhibition [1] | inhibition [2] | Structure (SMILES)
7.89 | 0% | – | NC(=O)c1cc(-c2ccnc(NC3CCCCC3)c2)nc(N2CCNCC2)c1
– | 36% | 36% | c1cc2c(N3CCNCC3)nc(-c3ccnc(NC4CCCCC4)c3)cc2cn1
